Data reported in patent publication US20050202033A1.

Chains of the proteins cited; added tags and fusions are not shown.
recombinant human or murine heat shock protein 70 (hsp70) (human or murine), P0DMV8, UniProt P0DMV8, whole entry: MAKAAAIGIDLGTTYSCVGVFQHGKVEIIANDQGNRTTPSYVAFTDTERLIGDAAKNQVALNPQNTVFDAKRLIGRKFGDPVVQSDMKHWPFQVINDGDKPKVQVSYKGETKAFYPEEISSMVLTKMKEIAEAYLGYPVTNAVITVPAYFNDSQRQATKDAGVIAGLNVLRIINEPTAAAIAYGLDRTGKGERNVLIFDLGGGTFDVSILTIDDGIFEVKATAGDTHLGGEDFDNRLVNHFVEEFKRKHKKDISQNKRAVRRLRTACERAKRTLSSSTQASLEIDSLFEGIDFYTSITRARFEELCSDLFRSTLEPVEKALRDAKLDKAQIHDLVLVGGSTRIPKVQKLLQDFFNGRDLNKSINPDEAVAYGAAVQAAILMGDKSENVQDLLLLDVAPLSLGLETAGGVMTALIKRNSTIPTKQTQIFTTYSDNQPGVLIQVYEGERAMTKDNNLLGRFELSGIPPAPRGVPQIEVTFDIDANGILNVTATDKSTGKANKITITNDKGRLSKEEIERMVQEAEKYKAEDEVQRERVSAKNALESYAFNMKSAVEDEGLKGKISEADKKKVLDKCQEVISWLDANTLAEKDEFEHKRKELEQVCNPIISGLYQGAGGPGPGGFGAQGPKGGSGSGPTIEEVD

Target: recombinant human or murine heat shock protein 70 (hsp70) (human or murine), P0DMV8
Assay: binding inhibition assay as in Example 2, on hsp70

Kd: 114 µM
Binder: SLLMWITQV (modifications not checked) [… (NY-ESO-1: 157-165 (165V))]
